# Measured values taken from PubChem BioAssay AID743269 (The Scripps Research Institute Molecular Screening Center, 2014).
# The list shows a part of the results, in another mix than the full data. Some tests of the compounds listed are not included; inactive here does not mean inactive elsewhere. Calls of active or inactive are those of the source.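 Rule for the calls: active = inhibition above the screen-wide mean plus 3 SD (cut at about 13% in these data); inactive = the rest.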
# System: HIV-1 integrase (with human LEDGF/p75)
# Assay: blockers of LEDGF/p75-dependent integrase strand transfer – biochemical, TR-FRET, high throughput, primary screen (AID 743269);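 note: signal is the Cy5 over europium emission ratio at 671 and 618 nm; 0% = plate median of compound wells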
# Conditions: TR-FRET IN-LEDGF/p75 DNA integration, Eu/Cy5; at 3.7 µM; stronger effect = higher value
row,SMILES,inhibition
1,O=C(OC1CN2CCC1CC2)C(CO)(c1ccccc1)c1ccccc1 (stereo unspecified),inactive: -2.49%
2,C=C(C)C#CC(O)(C(=O)OC1CCN(C)CC1)c1ccccc1 (stereo unspecified),inactive: -6.16%
3,COc1ccc(Br)c(C(=O)NCC2(N3CCCCC3)CCCCC2)c1,inactive: 0.1%
4,CC(C)Oc1ccc(C(=O)NCC2(N(C)C)CCCCC2)cc1,inactive: -0.48%
5,O=C(OCCN1CCCC1)C(O)(c1ccccc1)c1ccccc1,inactive: 0.57%
6,CN(C)c1cccc(C(=O)NCC2(N(C)C)CCCCC2)c1,inactive: 0.49%
7,CN(C)C1(CNC(=O)c2ccc(Br)cc2)CCCCC1,inactive: -5.56%
8,COc1cc(C(=O)NCC2(N(C)C)CCCCC2)c([N+](=O)[O-])cc1OC,inactive: -0.73%
9,COc1cccc(C(=O)NCC2(N3CCCCC3)CCCCC2)c1,inactive: 1.59%
10,COc1ccc(Cl)cc1C(=O)NCC1(N(C)C)CCCCC1,inactive: 5.29%
11,O=C(NCC1(N2CCCCC2)CCCCC1)c1cccc(Cl)c1,inactive: -3.94%
12,Cc1ccccc1C(=O)NCC1(N2CCCCC2)CCCCC1,inactive: -1.04%
13,CN(C)C1CCCC1OC(=O)C(O)(c1ccccc1)c1ccccc1 (stereo unspecified),inactive: 1.02%
14,CN(C)c1ccc(C(=O)NCC2(N(C)C)CCCCC2)cc1,inactive: 0.67%
15,C=CCN1CCN(CCOC(=O)C(O)(c2ccccc2)c2ccccc2)CC1,inactive: 0.14%
16,O=C(NCC1(N2CCCCC2)CCCCC1)c1cc(F)c(F)cc1Cl,inactive: 2.58%
17,COc1ccc(C(=O)NCC2(N(C)C)CCCCC2)cc1,inactive: -0.03%
18,Cc1cc(C(=O)NCC2(N3CCCCC3)CCCCC2)ccc1[N+](=O)[O-],inactive: -0.3%
19,CCN1CCCC(OC(=O)C2(O)c3ccccc3C=Cc3ccccc32)C1 (stereo unspecified),inactive: -3.46%
20,O=C(NCC1(N2CCCCC2)CCCCC1)c1cccc(Br)c1,inactive: -0.38%
21,O=C(NCC1(N2CCCCC2)CCCCC1)c1cc([N+](=O)[O-])ccc1Cl,inactive: 2.37%
22,CN1[C@@H]2CC[C@H]1CC(OC(=O)C(O)(c1ccccc1)c1ccccc1)C2 (stereo partly specified),inactive: 1.29%
23,CCN(CC)CC(C)C(C)OC(=O)C(O)(c1ccccc1)c1ccccc1 (stereo unspecified),inactive: -0.88%
24,COc1cc(SC)ccc1C(=O)NCC1(N(C)C)CCCCC1,inactive: -3.89%
25,CC(C)N1C(=O)CC2(CCN(CCOC(=O)C(O)(c3ccccc3)c3ccccc3)CC2)C1=O,inactive: -0.94%
26,Cc1ccc(C(=O)NCC2(N3CCCCC3)CCCCC2)cc1,inactive: -0.03%
